These results are taken from ChEMBL document CHEMBL3886560, “Dibenzofuran derivatives as inhibitors of fructose 1,6-bisphosphatase and methods of use thereof” (2016).

In general, IC50 refers to the point on the concentration scale where inhibition reaches its midpoint.

The test concerns the target T1, Fructose-1,6-bisphosphatase 1 (Sus scrofa, UniProt P00636).
T1 sequence (P00636 whole entry): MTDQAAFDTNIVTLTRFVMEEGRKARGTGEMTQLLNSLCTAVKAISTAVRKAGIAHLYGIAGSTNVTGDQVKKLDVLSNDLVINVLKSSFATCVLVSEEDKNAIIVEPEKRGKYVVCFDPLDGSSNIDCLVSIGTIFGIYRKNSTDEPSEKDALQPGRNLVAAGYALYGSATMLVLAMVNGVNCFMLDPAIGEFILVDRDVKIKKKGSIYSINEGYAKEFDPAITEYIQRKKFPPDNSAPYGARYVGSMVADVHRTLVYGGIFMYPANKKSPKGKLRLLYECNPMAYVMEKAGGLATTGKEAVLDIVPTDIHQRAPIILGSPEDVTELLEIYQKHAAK
Briefly: Spectrophotometrical Assay: FBPase activity was measured spectrophotometrically by employing the coupling enzymes phosphoglucose isomerase and glucose-6-phosphate dehydrogenase.17 The reduction of NADP+ to NADPH was monitored directly at 340 nm. Specifically, buffer (0.2 M Tris, 4 mM MgCl2, 4 mM (NH4)2SO4, 0.1 EDTA, pH 7.5), 0.2 mM of NADP+, 1.4 units of phosphoglucose isomerase and 0.5 units of glucose-6-phosphate dehydrogenase, 0-300M of inhibitor and 9 ng of FBPase, were mixed in a cuvette and equilibrated at 30° C. 70M of FBP was then added to initiate the reaction. Absdata were collected as a function of time using a JASCO V-630 spectrophotometer.

In turn, `CC(=O)C1=C(O)C=C2Oc3c(C(C)=O)c(O)c(C)c(O)c3C2(C)C1=O` (stereo unspecified) registered a 50% inhibitory concentration (IC50) of 930 µM.
